For one molecule, IC50 results are on record in ChEMBL document CHEMBL1781944, “The discovery of novel benzofuran-2-carboxylic acids as potent Pim-1 inhibitors” (Bioorg Med Chem Lett, 2011).

Protein sequences, listed by entry. Tags and fused reporters are not part of them.
UniProt P11309, whole entry: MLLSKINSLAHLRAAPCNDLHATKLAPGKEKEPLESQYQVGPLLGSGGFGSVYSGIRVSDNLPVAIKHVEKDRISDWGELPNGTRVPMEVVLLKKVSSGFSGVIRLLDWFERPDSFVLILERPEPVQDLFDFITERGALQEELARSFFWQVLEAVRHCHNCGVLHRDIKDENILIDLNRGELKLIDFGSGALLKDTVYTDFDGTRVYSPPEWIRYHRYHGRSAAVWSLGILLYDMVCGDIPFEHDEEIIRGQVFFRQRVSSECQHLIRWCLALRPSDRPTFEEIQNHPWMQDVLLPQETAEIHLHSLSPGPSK

The assay addresses Serine/threonine-protein kinase pim-1 (Homo sapiens, UniProt P11309).

In general, IC50 refers to the concentration that gives 50% inhibition. The molecule `N[C@H]1CC[C@H](Nc2cncc(-c3ccc4oc(C(=O)O)cc4c3)n2)CC1` registered an IC50 of 120 nM.
